Each structure is given as a SMILES string. This is a selection; strong and weak results do not stand in their true shares. Results filed as inconclusive are left out. Activity calls are given as the source filed them. The call rests on the fitted dose curve; in most records, active means well fitted inhibition curve with a large enough effect; inconclusive means small, poorly fitted or top-dose-only effect; inactive means no such curve, though single readings can be large or run the other way.

Amino acid sequences for entries named in this document (tags omitted).
UniProt O95398, whole entry: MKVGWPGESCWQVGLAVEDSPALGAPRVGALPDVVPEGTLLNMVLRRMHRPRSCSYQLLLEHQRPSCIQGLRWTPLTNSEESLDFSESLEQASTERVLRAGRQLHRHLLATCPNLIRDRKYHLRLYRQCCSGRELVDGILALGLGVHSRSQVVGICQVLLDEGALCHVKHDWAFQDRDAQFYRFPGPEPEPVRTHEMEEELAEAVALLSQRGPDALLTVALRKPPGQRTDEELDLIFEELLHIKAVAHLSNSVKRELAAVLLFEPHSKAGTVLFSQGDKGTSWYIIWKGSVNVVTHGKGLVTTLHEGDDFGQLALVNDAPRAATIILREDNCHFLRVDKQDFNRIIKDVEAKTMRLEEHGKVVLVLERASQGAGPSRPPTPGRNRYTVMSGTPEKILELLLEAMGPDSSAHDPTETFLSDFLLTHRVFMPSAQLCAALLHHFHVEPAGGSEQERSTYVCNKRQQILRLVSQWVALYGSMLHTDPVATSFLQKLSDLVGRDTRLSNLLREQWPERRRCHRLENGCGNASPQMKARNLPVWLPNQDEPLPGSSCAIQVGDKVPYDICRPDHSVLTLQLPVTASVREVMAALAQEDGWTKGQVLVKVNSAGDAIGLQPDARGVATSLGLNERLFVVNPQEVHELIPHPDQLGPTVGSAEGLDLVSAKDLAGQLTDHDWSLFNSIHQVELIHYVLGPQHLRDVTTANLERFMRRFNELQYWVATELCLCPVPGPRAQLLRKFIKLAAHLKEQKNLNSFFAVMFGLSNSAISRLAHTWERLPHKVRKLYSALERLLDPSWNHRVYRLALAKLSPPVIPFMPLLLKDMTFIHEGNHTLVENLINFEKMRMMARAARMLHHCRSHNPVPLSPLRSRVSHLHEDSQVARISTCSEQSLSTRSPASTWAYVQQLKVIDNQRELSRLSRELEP

For the assay, the target named is Rap guanine nucleotide exchange factor 3 (Homo sapiens) (UniProt O95398). Description: qHTS for Antagonist of cAMP-regulated guanine nucleotide exchange factor 3 (EPAC1): primary screen.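 Further: plate controls were vehicle for no effect and positive control for full effect; nearly all actives have a fitted effect of over 50% in size.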 Particulars: EPAC1 GEF assay, Rap1b-BODIPY-GDP exchange fluorescence; at 115 µM (top of the series). The source says:
In multi-cellular eukaryotic organisms, the effects of cAMP are transduced by two ubiquitously-expressed intracellular cAMP receptors, the classic protein kinase A/cAMP-dependent protein kinase (PKA/cAPK) and the more recently discovered exchange protein directly activated by cAMP/cAMP-regulated guanine nucleotide exchange factor (EPAC/cAMP-GEF). Both PKA and EPAC are ubiquitously expressed in all tissues, and an increase in intracellular cAMP levels will lead to the activation of both PKA and EPAC. Therefore, careful dissections of the individual role and relative contribution of EPAC and PKA within the overall cAMP signaling in various model systems are critical for further elucidating the mechanism of cAMP signaling. To date no EPAC-specific antagonists and agonist, as well as isoform-specific agonists have been reported, and developing EPAC-specific pharmacological probes to determine the physiological functions that EPAC play in the overall cAMP-mediated signaling remains a major challenge within the research field. Furthermore, identified regulators of EPAC may lead to new mechanism-based therapeutic strategies specifically targeting the EPAC / cAMP-signaling components as EPAC has been implicated to play important roles in major human pathological conditions such as diabetes, heart disease, and cancer. This qHTS will be used to screen the Molecular Libraries Small Molecule Repository (MLSMR) as a concentration-titration series using the NCGC unique quantitative screening (qHTS) platform to find inhibitors for EPAC1. In addition, this assay will also be used as a counterscreen for the EPAC2 qHTS. This fluorescent based assay is developed and validated for EPAC1 that measures exchange using EPAC effector Rap1 complex with BODIPY-GDP, a GDP analog with a tethered fluorophores. Inhibitors are identified by monitoring the change in fluorescence signal as the exchanged free BODIPY-GDP has a reduced fluorescence compared to Rap1-bound BODIPY-GDP. Decrease in signal (inhibition) is the desired outcome for the EPAC1 antagonist while no activity in this assay is desired for the EPAC2 antagonist counterscreen. de Rooij, J., Zwartkruis, F. J., Verheijen, M. H., Cool, R. H., Nijman, S. M., Wittinghofer, A., and Bos, J.L. (1998) Nature 396, 474-477 [2] Kawasaki, H., Springett, G. M., Mochizuki, N., Toki, S., Nakaya, M., Matsuda, M., Housman, D. E., and Graybiel, A. M. (1998) Science 282, 2275-2279 NIH Chemical Genomics Center [NCGC] NIH Molecular Libraries Probe Centers Network [MLPCN] MLPCN Grant: NS066510 Assay Submitter (PI): Xiaodong Cheng, The University of Texas, Medical Branch
Briefly, three uL of reagents (100 nM EPAC1, 250 nM RAP1B-BODIPY-GDP, 50 uM GDP) were dispensed into a 1536-well Greiner black solid-bottom medium binding assay plate. Controls and test compounds (23 nL) were transferred to the plate via a Kalypsys pin tool equipped with a 1536-pin array. The plates were centrifuged at 1,000 rpm for 15 seconds followed by 5 minute incubation at room temperature. The assay plates were read at 5 minute intervals for 30 minutes in the ViewLux plate reader using 480nm excitation and 540nm emission filters. The results were normalized to the […] positive control ATA and DMSO.
Regarding `CN(C)C(=O)c1c([N+](=O)[O-])cc([N+](=O)[O-])cc1[N+](=O)[O-]`, the activity change, negative = inhibition is inactive: -22.1%.
Under `CP(=O)(Nc1ccc(Cl)cc1)Oc1ccc(F)cc1` (configuration not stated) stands inactive: 1.7%; under `COc1ccccc1OP(C)(=O)Nc1ccccc1Br` (configuration not stated), inactive: 5.96%; under `CC(C)(C)c1ccc(OP(C)(=O)O)cc1`, inactive: 15%.
To `CCc1ccc(OP(C)(=O)Nc2cccnc2)cc1` (configuration not stated) belongs inactive: 20.6%.
Under `CP(=O)(Oc1ccccc1)N1CCOC1=O` (configuration not stated) stands inactive: 14.5%.
Regarding `O=C(OCCCN1CCCC1)C(O)(c1ccccc1)C1CCCCC1` (configuration not stated), the activity change, negative = inhibition was inactive: 19.1%.
On to `COc1ccccc1OP(C)(=O)Nc1c(C)n(C)n(-c2ccccc2)c1=O` (configuration not stated), for which the activity change, negative = inhibition was inactive: 4.49%.
To `COc1ccc(OP(C)(=O)Nc2ccc(Br)cc2)cc1` (configuration not stated) belongs inactive: -3.86%; to `CCN(CC)CC(O)COC(=O)C(O)(c1ccccc1)C1CCCCC1` (configuration not stated), inactive: -2%.
To `CP(=O)(OC12CC3CC(CC(C3)C1)C2)OC12CC3CC(CC(C3)C1)C2` belongs inactive: 9.32%; to `CCOC(=O)c1ccc(NP(C)(=O)Oc2ccc(Cl)cc2)cc1` (configuration not stated), inactive: 1.24%; to `Nc1ccc2c(ccc3cccnc32)n1.O=[N+]([O-])c1cc([N+](=O)[O-])c(O)c([N+](=O)[O-])c1`, inactive: -7.07%.
Under `CCCCCCCCCCCCCCCC1C[N+](C)(C)CCOP(C)(=O)O1` (configuration not stated) stands inactive: -21.9%.
As to `CP(=O)(Nc1ccc(Cl)cc1Cl)Oc1ccccc1` (configuration not stated), the activity change, negative = inhibition was inactive: -12.5%.
`CP(=O)(OCCOc1ccccc1)OCCOc1ccccc1`: the activity change, negative = inhibition is inactive: -3.35%.
Under `COc1ccc(OP(C)(=O)Nc2ccccc2Br)cc1` (configuration not stated) stands inactive: 8.19%; under `COc1ccccc1OP(C)(=O)Nc1ccc(C)c(C)c1` (configuration not stated), inactive: -6.58%.
To `CCc1ccc(OP(C)(=O)O)cc1` belongs inactive: -10.9%; to `COc1ccccc1OP(C)(=O)Nc1ccc(C)cc1C` (configuration not stated), inactive: -4.33%; to `CP(=O)(Nc1ccccn1)Oc1ccccc1` (configuration not stated), inactive: 0.558%.
Under `Cc1c(NP(C)(=O)Oc2ccc(C(C)C)cc2)c(=O)n(-c2ccccc2)n1C` (configuration not stated) stands inactive: 8.57%; under `O=[N+]([O-])c1cc([N+](=O)[O-])c(Nc2ccccn2)c([N+](=O)[O-])c1`, inactive: -7.04%; under `CN(C)CCOC(=O)C(O)(c1ccccc1)C1CCCC1` (configuration not stated), inactive: 3.73%.
Turning to `COc1ccc(OP(C)(=O)Nc2ccccn2)cc1` (configuration not stated), the activity change, negative = inhibition was inactive: 13.4%.
Turning to `COc1ccccc1OP(C)(=O)Nc1ccc(Br)cc1` (configuration not stated), the activity change, negative = inhibition is inactive: 1.68%.
To `O=C(OCCN1CCN(CCOCc2ccccc2)CC1)C(O)(c1ccccc1)c1ccccc1` belongs inactive: -3.21%; to `CP(=O)(Nc1ccccc1F)Oc1ccccc1` (configuration not stated), inactive: 14.7%; to `CP(=O)(Nc1ccccc1)Oc1ccc(F)cc1` (configuration not stated), inactive: 9.01%.
On to `CCN(CC)CCCOC(=O)C(O)(c1ccccc1)C1CCCCC1` (configuration not stated), for which the activity change, negative = inhibition is inactive: 5.2%.
Under `Cc1c([N+](=O)[O-])cc([N+](=O)[O-])c(Br)c1[N+](=O)[O-]` stands inactive: -6.35%.
To `COc1ccc(OP(C)(=O)Nc2ccc(SC(F)(F)F)cc2)cc1` (configuration not stated) belongs inactive: -16.4%; to `CCOC(=O)c1ccc(NP(C)(=O)Oc2ccc(F)cc2)cc1` (configuration not stated), inactive: 20.7%.
Under `Cc1c(C(c2ccc3c(c2)OCO3)c2c(C)n(C)n(-c3ccccc3)c2=O)c(=O)n(-c2ccccc2)n1C.O=[N+]([O-])c1cc([N+](=O)[O-])c(O)c([N+](=O)[O-])c1` stands inactive: -0.904%; under `Cc1cc(-c2cccc3ccccc23)c(C)cn1.O=[N+]([O-])c1cc([N+](=O)[O-])c(O)c([N+](=O)[O-])c1`, inactive: -19.5%; under `O=[N+]([O-])c1ccc(OP2(=O)COCCO2)cc1` (configuration not stated), inactive: 23.9%.
Take `COc1ccc(NP(C)(=O)Oc2ccccc2OC)cc1` (configuration not stated): the activity change, negative = inhibition was inactive: -7.96%.
To `CN(C)CCOC(=O)C(O)(c1ccccc1)C1CCCCC1` (configuration not stated) belongs inactive: -8.67%; to `COc1ccc(OP(C)(=O)Nc2cccc(Br)c2)cc1` (configuration not stated), inactive: -4.42%.
To `Cc1ccccc1NP(C)(=O)Nc1ccccc1C` belongs inactive: 5.83%; to `CP(=O)(Nc1ccc2c(c1)OCCO2)Oc1ccccc1` (configuration not stated), inactive: -1.55%; to `CCOP(C)(=S)SCC(=O)NC(C)(CC)C(=O)O` (configuration not stated), inactive: -0.526%.
To `CP(=O)(Nc1ccc(SC(F)(F)F)cc1)Oc1ccc(F)cc1` (configuration not stated) belongs inactive: -18.3%; to `Cc1nc2ccc3ccccc3c2s1.O=[N+]([O-])c1cc([N+](=O)[O-])c(O)c([N+](=O)[O-])c1`, inactive: -15%.
In the case of `O=[N+]([O-])c1cc([N+](=O)[O-])c(-c2cnn(-c3ccccc3)c2)c([N+](=O)[O-])c1`, the activity change, negative = inhibition was inactive: -4.98%.
As to `CN(Cc1cccnc1)C(=O)COc1ccc(Cl)c(Cl)c1.O=[N+]([O-])c1cc([N+](=O)[O-])c(O)c([N+](=O)[O-])c1`, the activity change, negative = inhibition was inactive: -4.13%.
Under `O=[N+]([O-])c1cc([N+](=O)[O-])c(-n2nnc3ccccc32)c([N+](=O)[O-])c1` stands inactive: -12.6%; under `CCCOc1ccc(NP(C)(=O)Oc2ccc(Cl)cc2)cc1` (configuration not stated), inactive: -15%; under `CP(=O)(Nc1ccc(SC(F)(F)F)cc1)Oc1ccccc1` (configuration not stated), inactive: -16.2%.
Under `COc1ccc(-c2ccccn2)cc1.O=[N+]([O-])c1cc([N+](=O)[O-])c(O)c([N+](=O)[O-])c1` stands inactive: -15.3%.
To `COc1ccccc1OP(C)(=O)Nc1c(C)cccc1C` (configuration not stated) belongs inactive: -7.03%.
Turning to `CN1CCCCC1COC(=O)C1(O)c2ccccc2CCc2ccccc21` (configuration not stated), the activity change, negative = inhibition is inactive: -19.7%.
To `O=[N+]([O-])c1cc([N+](=O)[O-])c(Nc2nnnn2CCO)c([N+](=O)[O-])c1` belongs inactive: -4.91%; to `CC1=NCCc2c1[nH]c1ccccc21.O=[N+]([O-])c1cc([N+](=O)[O-])c(O)c([N+](=O)[O-])c1`, inactive: 11.4%.
To `CP(=O)(Nc1cccc(Br)c1)Oc1ccccc1` (configuration not stated) belongs inactive: -0.538%.
Under `Cc1ccc(C)c(NP(C)(=O)Oc2ccccc2)c1` (configuration not stated) stands inactive: -6.1%; under `Cc1cc(C)cc(OP(C)(=O)Nc2ccc(C)cc2C)c1` (configuration not stated), inactive: -9.94%.
On to `CCOC(=O)c1ccc(NP(C)(=O)Oc2cc(C)cc(C)c2)cc1` (configuration not stated), for which the activity change, negative = inhibition was inactive: -27.2%.
Under `COc1ccccc1OP(C)(=O)Nc1cccc(Br)c1` (configuration not stated) stands inactive: 3.09%; under `COc1ccccc1-c1ccccn1.O=[N+]([O-])c1cc([N+](=O)[O-])c(O)c([N+](=O)[O-])c1`, inactive: -10.1%; under `CCN(CC)CCCOC(=O)C(O)(c1ccccc1)c1ccccc1`, inactive: 4.53%.
On to `COc1ccc(OP(C)(=O)Nc2cccc(F)c2)cc1` (configuration not stated), for which the activity change, negative = inhibition is inactive: 9.58%.
For `COc1ccccc1OP(C)(=O)Nc1cc(Cl)ccc1C` (configuration not stated), the activity change, negative = inhibition is inactive: 4.85%.
To `Cc1cc(C)cc(OP(C)(N)=O)c1` (configuration not stated) belongs inactive: 5.1%.
Under `CCOC(=O)c1ccc(NP(C)(=O)Oc2ccccc2)cc1` (configuration not stated) stands inactive: 10.9%.
To `Cc1ccc(NP(C)(=O)Oc2ccccc2)c(C)c1` (configuration not stated) belongs inactive: -0.307%.
As to `COc1ccccc1OP(C)(=O)Nc1ccc(C)cc1` (configuration not stated), the activity change, negative = inhibition is inactive: -0.397%.
Under `Cc1cccc(C)c1OP(C)(N)=O` (configuration not stated) stands inactive: 1.1%.
To `CC(C)(C)c1ccc(OP(C)(=O)Nc2ccc(SC(F)(F)F)cc2)cc1` (configuration not stated) belongs inactive: -26%; to `O=[N+]([O-])c1ccc2c(c1)C=Nc1ccccc1O2`, inactive: -18.7%; to `O=[N+]([O-])c1cc([N+](=O)[O-])c(Nc2cccnc2)c([N+](=O)[O-])c1`, inactive: 2.97%.
Under `COc1ccccc1OP(C)(=O)Nc1ccccc1` (configuration not stated) stands inactive: 4.51%.
As to `CP(=O)(Nc1ccccc1Br)Oc1ccccc1` (configuration not stated), the activity change, negative = inhibition was inactive: 9.11%.
Under `CP(=S)(Nn1cnnc1)Oc1ccccc1` (configuration not stated) stands inactive: -13.7%; under `CP(=O)(Nc1ccccn1)Oc1ccc(Cl)cc1` (configuration not stated), inactive: -0.767%.
To `CCOP(C)(=S)SCC(=O)NC(C)C(=O)O` (configuration not stated) belongs inactive: -2.63%.
Under `CCOC(=O)c1ccc(NP(C)(=O)Oc2ccc(OC)cc2)cc1` (configuration not stated) stands inactive: 15.2%.
On to `O=[N+]([O-])c1cc([N+](=O)[O-])c(O)c([N+](=O)[O-])c1.c1ccc(Oc2ccncc2)cc1`, for which the activity change, negative = inhibition is inactive: -13.2%.
To `CP(=O)(NC(=O)Nc1ccccc1)Oc1ccccc1` (configuration not stated) belongs inactive: -12.2%; to `CCc1ccc(OP(C)(=O)N2CCN(c3ccc([N+](=O)[O-])cc3)CC2)cc1` (configuration not stated), inactive: -10.9%; to `CP(=O)(Oc1ccccc1)OC(c1ccccc1)C(F)(F)F` (configuration not stated), inactive: -19.6%.
On to `Cc1cccc(C)c1OP(C)(=O)Nc1ccc(SC(F)(F)F)cc1` (configuration not stated), for which the activity change, negative = inhibition is inactive: -5.36%.

The values above are taken from PubChem BioAssay AID720709 (National Center for Advancing Translational Sciences (NCATS), 2013).
